The target of one assay is MERTK (Homo sapiens, UniProt Q12866). To be noted: […] crizotinib; […] Tracer K10; […] h, […] C; n = […].
Another assay addresses MUSK (Homo sapiens, UniProt O15146). To be noted: […] crizotinib; […] Tracer K10; […] h, […] C; n = […].

Protein sequences, listed by entry. Tags and fused reporters are not part of them. Residues count along the entry.
UniProt Q12866, 21-999: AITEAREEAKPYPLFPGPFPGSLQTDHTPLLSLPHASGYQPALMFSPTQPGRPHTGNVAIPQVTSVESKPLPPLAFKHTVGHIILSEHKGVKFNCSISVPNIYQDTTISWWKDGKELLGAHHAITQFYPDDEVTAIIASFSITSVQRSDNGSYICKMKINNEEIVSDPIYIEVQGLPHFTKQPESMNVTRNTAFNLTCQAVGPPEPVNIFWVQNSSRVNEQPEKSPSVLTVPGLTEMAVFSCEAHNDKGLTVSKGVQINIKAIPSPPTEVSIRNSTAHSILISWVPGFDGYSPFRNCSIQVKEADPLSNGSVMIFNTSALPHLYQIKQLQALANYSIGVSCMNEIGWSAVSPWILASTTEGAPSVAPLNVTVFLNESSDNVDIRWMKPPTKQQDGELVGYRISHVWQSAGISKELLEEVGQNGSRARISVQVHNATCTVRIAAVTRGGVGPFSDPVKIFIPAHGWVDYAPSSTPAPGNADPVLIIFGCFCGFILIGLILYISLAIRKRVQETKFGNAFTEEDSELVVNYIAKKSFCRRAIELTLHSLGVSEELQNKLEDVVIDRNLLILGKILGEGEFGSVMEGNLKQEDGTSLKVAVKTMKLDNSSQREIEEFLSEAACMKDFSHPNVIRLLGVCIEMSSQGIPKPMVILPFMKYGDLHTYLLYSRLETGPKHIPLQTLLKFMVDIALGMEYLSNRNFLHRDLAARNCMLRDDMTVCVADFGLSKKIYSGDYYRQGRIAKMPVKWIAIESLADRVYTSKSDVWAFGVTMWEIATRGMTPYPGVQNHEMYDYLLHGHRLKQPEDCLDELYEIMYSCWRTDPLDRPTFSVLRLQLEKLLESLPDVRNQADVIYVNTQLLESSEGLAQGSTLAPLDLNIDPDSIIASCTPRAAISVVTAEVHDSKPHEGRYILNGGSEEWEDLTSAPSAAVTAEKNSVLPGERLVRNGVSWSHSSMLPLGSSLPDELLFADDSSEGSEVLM
UniProt O15146, 24-869: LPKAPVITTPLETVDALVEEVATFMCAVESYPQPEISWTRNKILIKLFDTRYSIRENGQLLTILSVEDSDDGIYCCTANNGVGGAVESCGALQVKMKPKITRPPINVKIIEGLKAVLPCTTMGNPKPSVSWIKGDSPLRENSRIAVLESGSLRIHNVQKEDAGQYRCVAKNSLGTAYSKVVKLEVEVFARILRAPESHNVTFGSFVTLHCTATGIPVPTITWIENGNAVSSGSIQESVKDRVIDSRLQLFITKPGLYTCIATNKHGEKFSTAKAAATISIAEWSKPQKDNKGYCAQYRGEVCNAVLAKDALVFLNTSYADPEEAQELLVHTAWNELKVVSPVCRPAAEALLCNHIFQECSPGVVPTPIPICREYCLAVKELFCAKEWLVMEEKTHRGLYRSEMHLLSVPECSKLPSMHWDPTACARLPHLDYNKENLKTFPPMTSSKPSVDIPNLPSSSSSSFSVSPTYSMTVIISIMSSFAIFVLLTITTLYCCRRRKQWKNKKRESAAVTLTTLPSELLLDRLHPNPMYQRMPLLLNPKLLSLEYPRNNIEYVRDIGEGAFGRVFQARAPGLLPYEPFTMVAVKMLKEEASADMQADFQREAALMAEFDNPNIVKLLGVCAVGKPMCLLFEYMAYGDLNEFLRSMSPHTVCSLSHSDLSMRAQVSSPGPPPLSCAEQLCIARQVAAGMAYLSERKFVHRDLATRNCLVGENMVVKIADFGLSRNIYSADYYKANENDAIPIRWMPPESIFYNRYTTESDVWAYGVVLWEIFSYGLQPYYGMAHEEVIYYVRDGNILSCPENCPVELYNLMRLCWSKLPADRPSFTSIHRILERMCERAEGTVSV

Regarding `C[C@@H](Oc1cc(-c2cnn(C3CCNCC3)c2)cnc1N)c1c(Cl)ccc(F)c1Cl` [crizotinib], the “Crizotinib % occupancy, 1 uM” value is given as 58 ± 3.3% on MERTK and 80 ± 2.8% on MUSK.

The values are drawn from paper PMC8449129, “Single tracer-based protocol for broad-spectrum kinase profiling in live cells with NanoBRET” (STAR Protocols, 2021).
